Values of other authors in publication PMC6359455, “Partial Solvation Parameters of Drugs as a New Thermodynamic Tool for Pharmaceutics” (Pharmaceutics, 2019).

Design: method as in doi:10.1021/acs.iecr.7b02286
Conditions: common solvents; cited from earlier work

For `CCc1ccccc1` [Ethylbenzene], the “E (excess refractivity LSER descriptor)” value is listed as 0.610.
